Test results as given in patent US6063815A, “Benzopenones useful in the treatment of insulin resistance and hyperglycemia” (American Home Products Corporation, priority 1999, dated 2000).

Protein sequences, listed by entry. Tags and fused reporters are not part of them. Lines headed by an entry give the natural chain unless they say otherwise; changes in a name come on top.
UniProt P18031: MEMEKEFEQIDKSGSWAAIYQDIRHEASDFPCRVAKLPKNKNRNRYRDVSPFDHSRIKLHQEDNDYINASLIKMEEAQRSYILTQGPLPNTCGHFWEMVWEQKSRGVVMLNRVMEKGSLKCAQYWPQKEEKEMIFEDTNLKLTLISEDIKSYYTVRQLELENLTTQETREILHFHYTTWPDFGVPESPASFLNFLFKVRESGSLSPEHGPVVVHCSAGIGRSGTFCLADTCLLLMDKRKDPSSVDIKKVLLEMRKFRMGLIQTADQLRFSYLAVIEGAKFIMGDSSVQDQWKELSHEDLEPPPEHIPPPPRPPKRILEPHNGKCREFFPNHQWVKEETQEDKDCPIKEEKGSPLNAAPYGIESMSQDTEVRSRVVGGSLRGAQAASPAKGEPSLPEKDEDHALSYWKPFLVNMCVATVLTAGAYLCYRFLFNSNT

Molecular target: recombinant, human protein tyrosine phosphatase (PTP) 1B (hPTP1B) (Homo sapiens, UniProt P18031)
Assay: Inhibition of Tri-Phosphorylated Insulin Receptor Dodecaphosphopeptide Dephosphorylation by hPTP1B
Conditions: 50 μM IR triphosphopeptide substrate, 5 min at 37° C., pH 7.4

## Ammonium molybdate tetrahydrate
  IC50: 8.7 µM
